According to patent publication US20210087291A1 (Hoffmann-La Roche, published 2021):
Where two headings read alike, the source gives them in different places.

Legend:
[1] = target: T1, human FolR1 ECD-AcTev-Fcknob-Avi tag + Fc hole, biotinylated monomeric Fc fusion (human, UniProt P0DOX5 223-449 = IgG part); assay: SPR, apparent KD, bivalent binding (avidity)
T1 construct: also called huFolR1; huFolR1-Fc

[2] = target: T1, human FolR1 ECD-AcTev-Fcknob-Avi tag + …; assay: SPR, monovalent, antibody captured by anti-Fab
[3] = target: T1, human FolR1 ECD-AcTev-Fcknob-Avi tag + …; assay: SPR ProteOn, Fab analyte;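 note: recombinant antigens immobilized, purified Fab two-fold dilutions injected in parallel channels, 200 s association and 600 s dissociation, buffer-only channel as in-line reference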
[4] = target: T2, murine FolR1 ECD-AcTev-Fcknob-Avitag + Fc hole, biotinylated monomeric Fc fusion (murine, UniProt P0DOX5 223-449 = IgG part); assay: SPR ProteOn, Fab analyte
T2 construct: also called muFolR1; murine FolR1-Fc

[5] = target: T2, murine FolR1 ECD-AcTev-Fcknob-Avitag + …; assay: SPR ProteOn, Fab analyte; remark: listed apart in the source;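 note: recombinant antigens immobilized, purified Fab two-fold dilutions injected in parallel channels, 200 s association and 600 s dissociation, buffer-only channel as in-line reference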

B1: Farletuzumab (antibody, V domains shown)
VH: EVQLVESGGGVVQPGRSLRLSCSASGFTFSGYGLSWVRQAPGKGLEWVAMISSGGSYTYYADSVKGRFAISRDNAKNTLFLQMDSLRPEDTGVYFCARHGDDPAWFAYWGQGTPVTVSS
VL: DIQLTQSPSSLSASVGDRVTITCSVSSSISSNNLHWYQQKPGKAPKPWIYGTSNLASGVPSRFSGSGSGTDYTFTISSLQPEDIATYYCQQWSSYPYMYTFGQGTKVEIKR
Binder B1 has a Kd [1] of 0.73 nM and a Kd [2] of 55.3 nM.

B2: 19E5 Fab (Fab, V domains shown)
VH: QVQLVQSGAEVKKPGASVKVSCKASGYTFTSYYMHWVRQAPGQGLEWMGIINPSGGSTSYAQKFQGRVTMTRDTSTSTVYMELSSLRSEDTAVYYCARGEWRRYTSFDYWGQGTLVTVSS
VL: QAVVTQEPSLTVSPGGTVTLTCGSSTGAVTTSNYANWVQEKPGQAFRGLIGGTNKRAPGTPARFSGSLLGGKAALTLSGAQPEDEAEYYCALWYSNLWVFGGGTKLTVL
B2 showed a Kd [3] of 522 nM and a Kd [4] of 19.4 nM.

B3: 14E4 Fab (Fab, V domains shown)
VH: not shown
VL: EIVLTQSPGTLSLSPGERATLSCRASQSVSSSYLAWYQQKPGQAPRLLIYGASSRATGIPDRFSGSGSGTDSTLTISRLEPEDFAVYYCQQPTSSPITFGQGTKVEIK
Work on B3 yielded a Kd [5] of 6.09 nM.
